# Test results taken from PMC10143822, “Structural Adaptation of the Single-Stranded DNA-Binding Protein C-Terminal to DNA Metabolizing Partners Guides Inhibitor Design” (Pharmaceutics, 2023).
# The chains behind the UniProt entries cited, without tags or fusion partners. Where a name states a change or a piece, a line headed by the entry shows the natural chain unless it says otherwise. Residues count along the entry.
# UniProt P04995, 1-471: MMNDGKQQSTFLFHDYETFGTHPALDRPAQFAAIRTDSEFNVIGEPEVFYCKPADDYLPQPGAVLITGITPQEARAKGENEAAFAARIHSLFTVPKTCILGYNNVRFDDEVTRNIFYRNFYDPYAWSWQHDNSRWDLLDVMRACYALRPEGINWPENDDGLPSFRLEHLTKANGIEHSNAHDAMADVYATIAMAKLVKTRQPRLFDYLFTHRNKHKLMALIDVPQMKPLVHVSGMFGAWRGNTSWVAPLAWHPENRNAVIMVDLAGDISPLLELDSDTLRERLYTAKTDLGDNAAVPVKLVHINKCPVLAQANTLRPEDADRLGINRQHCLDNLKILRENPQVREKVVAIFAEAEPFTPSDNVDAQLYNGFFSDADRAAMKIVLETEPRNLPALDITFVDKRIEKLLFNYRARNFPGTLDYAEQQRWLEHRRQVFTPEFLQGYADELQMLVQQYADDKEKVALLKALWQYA
# UniProt P0A7H3: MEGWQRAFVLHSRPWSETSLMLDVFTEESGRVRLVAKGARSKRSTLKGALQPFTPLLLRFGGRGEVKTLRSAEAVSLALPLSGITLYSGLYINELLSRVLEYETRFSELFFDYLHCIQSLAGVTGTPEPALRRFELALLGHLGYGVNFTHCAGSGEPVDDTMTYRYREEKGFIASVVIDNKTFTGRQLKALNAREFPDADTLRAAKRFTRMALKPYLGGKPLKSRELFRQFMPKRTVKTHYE
# Columns and labels:
# ExoI = biological target: T1, ExoI (Escherichia coli, UniProt P04995); assay: biochemical; assay type: binding, E. coli
# T1 construct: His-tag (cleaved yes); host or cells: E. coli BL21 (DE3) pLysS
# Description: (§1) Triplicate measurements were performed using a Clariostar Plus Microplate Reader in 384-well plates for all fluorescence anisotropy (FA) experiments. The settings were 25 °C, excitation at 485 nm, emission at 510 nm, settling time of 0.2 s, and 200 flashes per well.
# (§2) Competition fluorescence anisotropy experiments were carried out as follows: protein (0.5 μM either ExoI or RecO) was incubated with 50 nM F-wtSSB peptide and 0–500 μM unlabeled wtSSB (or a variant) peptide for 30 min at room temperature. For direct fluorescence anisotropy measurements, 16 µM ExoI and 7.5 µM RecO were used in the first well. After serial dilution, either 50 nM of F-mSSB or F-sSSB was added to the wells and then incubated for 30 min. […]
# (§3) Fluorescence anisotropy values were normalized and are shown as bound fractions (BF, %). […]
# (§4) Competitive fluorescence anisotropy was analyzed in Origin Pro 9.5, and IC50 values were determined using the Logistic Nonlinear fit function and are shown as plots for each mutated position for each protein in Figures S4 and S6. EC50 values from direct fluorescence anisotropy titrations were plotted in Origin 9.5. Values were determined using the Logistics Nonlinear fit function.
# RecO = biological target: T2, RecO (Escherichia coli, UniProt P0A7H3); assay: biochemical; assay type: binding
# T2 construct: His-tag (TEV site) (N, cleaved yes); made in house; host or cells: E. coli Rosetta cells
# Description: as §1, §2, §3, §4
structure (smiles),measurement,setting,value
CC[C@H](C)[C@H](NC(=O)[C@H](CC(=O)O)NC(C)=O)C(=O)N1CCC[C@H]1C(=O)N[C@@H](Cc1ccccc1)C(=O)O [DIPF],IC50,ExoI,102 ± 6.61 µM
same,IC50,RecO,44.8 ± 4.53 µM
